Where two headings read alike, the source gives them in different places.

Protein sequences, listed by entry. Tags and fused reporters are not part of them. Lines headed by an entry give the natural chain unless they say otherwise; changes in a name come on top.
UniProt P05182: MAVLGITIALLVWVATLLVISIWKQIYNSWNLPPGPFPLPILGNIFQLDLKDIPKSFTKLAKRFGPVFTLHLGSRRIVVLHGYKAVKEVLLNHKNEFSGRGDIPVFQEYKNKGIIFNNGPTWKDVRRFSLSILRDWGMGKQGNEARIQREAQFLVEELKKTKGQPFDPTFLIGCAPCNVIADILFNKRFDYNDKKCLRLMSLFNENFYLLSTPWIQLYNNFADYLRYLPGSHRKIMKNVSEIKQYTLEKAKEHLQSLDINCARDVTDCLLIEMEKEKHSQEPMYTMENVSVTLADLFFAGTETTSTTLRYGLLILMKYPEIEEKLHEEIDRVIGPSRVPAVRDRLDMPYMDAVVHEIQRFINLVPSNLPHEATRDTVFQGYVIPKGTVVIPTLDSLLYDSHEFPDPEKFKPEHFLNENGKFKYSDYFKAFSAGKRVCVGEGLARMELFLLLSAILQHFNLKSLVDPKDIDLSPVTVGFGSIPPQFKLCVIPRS

This series has as its target Cytochrome P450 2E1 (CYP2E1) (Rattus norvegicus, UniProt P05182). Particulars: rat liver microsomes.

Glycerin monostearate: the “CYP 2E1 inhibition ratio” value by setting is: (test concentration 0.024%) 8.3 ± 5.7%; (test concentration 0.084% (w/v)) 7.4 ± 2.9%; (test concentration 0.167% (w/v)) 6.9 ± 1.8%.

Values taken from patent US10420737B2, “Hepatotoxicity-free pharmaceutical composition containing acetaminophen drugs” (NATIONAL DEFENSE EDUCATION AND RESEARCH FOUNDATION, priority 2013, dated 2019).
